Reference: US20060069123A1, “Substituted dipiperidine CCR2 antagonists” (priority 2004, published 2006)

These compounds were tested against T1, CCR2 (Homo sapiens, UniProt P41597). Details: Inhibition of MCP-1 Binding IC50, 125I labeled MCP-1 binding to CCR2, THP-1 cells.
T1 sequence (P41597 1-360 isoform P41597-2): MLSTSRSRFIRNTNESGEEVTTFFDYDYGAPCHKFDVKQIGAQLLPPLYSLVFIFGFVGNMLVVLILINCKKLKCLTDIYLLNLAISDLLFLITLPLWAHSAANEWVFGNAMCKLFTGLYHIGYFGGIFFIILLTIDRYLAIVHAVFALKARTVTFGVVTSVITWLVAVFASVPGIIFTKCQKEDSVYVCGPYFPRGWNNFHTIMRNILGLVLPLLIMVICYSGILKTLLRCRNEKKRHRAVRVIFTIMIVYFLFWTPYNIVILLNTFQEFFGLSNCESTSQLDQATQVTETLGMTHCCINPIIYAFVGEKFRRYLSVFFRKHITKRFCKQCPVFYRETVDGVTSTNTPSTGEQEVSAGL

Row | IC50 | Compound
1 | 50 nM | COc1ccc2c(C3CCN(C(CO)C4CCN(C(=O)/C=C/c5cc(F)c(F)c(F)c5)CC4)CC3)c[nH]c2c1 (stereo not shown) [Cpd 132, (2E)-1-(4-{2-hydroxy-1-[4-(6-methoxy-1H-indol-3-yl)-piperidin-1-yl]-ethyl}-piperidin-1-yl)-3-(3,4,5-trifluoro-phenyl)-propenone]
2 | 73 nM | COc1ccc2c(C3CCN(C(CO)C4CCN(C(=O)/C=C/c5cc(F)c(F)c(F)c5)CC4)CC3)c[nH]c2c1 (stereo not shown) [Cpd 167, (2E)-1-(4-{2-hydroxy-1-[4-(6-methoxy-1H-indol-3-yl)-piperidin-1-yl]-ethyl}-piperidin-1-yl)-3-(3,4,5-trifluoro-phenyl)-propenone]
3 | 80 nM | CC(=O)NCC(C1CCN(C(=O)/C=C/c2cc(F)c(F)c(F)c2)CC1)N1CCC(c2c[nH]c3ccccc23)CC1 (stereo not shown) [Cpd 213, N-(2-[4-(1H-indol-3-yl)-piperidin-1-yl]-2-{1-[(2E)-3-(3,4,5-trifluoro-phenyl)-acryloyl]-piperidin-4-yl}-ethyl)-acetamide]

Row | Compound | IC50
4 | CS(=O)(=O)Nc1ccc2c(C3CCN(C(C(=O)O)C4CCN(C(=O)/C=C/c5cc(F)c(F)c(F)c5)CC4)CC3)c[nH]c2c1 (stereo not shown) [Cpd 82] | 110 nM
